Tested on: CR6256 PDX tumors rebounding after sotorasib treatment
Experiment: PDX study on tumors regrown under sotorasib
Assay type: in vivo, mice
Conditions: after 63 days of 100 mg/kg sotorasib; then 100 mg/kg sotorasib, 100 mg/kg glecirasib, 50 mg/kg cetuximab or combination

## Cetuximab: EGFR-targeted mAb produced by Merck Healthcare KGaA
  tumor response of rebound tumors: exhibited resistance

Source: article PMC12076188 (Cancer Research Communications, 2025)
